The values that follow come from ChEMBL document CHEMBL1772943, “Potent, selective, and orally available benzoisothiazolone phosphomannose isomerase inhibitors as probes for congenital disorder of glycosylation Ia” (J Med Chem, 2011).

The species entered for the test is Homo sapiens. The experiment in a line: Selectivity ratio of IC50 for human purified PMM2 to IC50 for human purified phosphomannose isomerase.

As to `Cc1ccc(C)c(-n2sc3cc(F)ccc3c2=O)c1`, the Ratio IC50 came out at 7.
